Measurements reported in paper PMC4904262 (ACS Medicinal Chemistry Letters, 2016).
pIC50: −log10 of the molar value.

Protein sequences, listed by entry. Tags and fused reporters are not part of them.
UniProt Q06278, whole entry: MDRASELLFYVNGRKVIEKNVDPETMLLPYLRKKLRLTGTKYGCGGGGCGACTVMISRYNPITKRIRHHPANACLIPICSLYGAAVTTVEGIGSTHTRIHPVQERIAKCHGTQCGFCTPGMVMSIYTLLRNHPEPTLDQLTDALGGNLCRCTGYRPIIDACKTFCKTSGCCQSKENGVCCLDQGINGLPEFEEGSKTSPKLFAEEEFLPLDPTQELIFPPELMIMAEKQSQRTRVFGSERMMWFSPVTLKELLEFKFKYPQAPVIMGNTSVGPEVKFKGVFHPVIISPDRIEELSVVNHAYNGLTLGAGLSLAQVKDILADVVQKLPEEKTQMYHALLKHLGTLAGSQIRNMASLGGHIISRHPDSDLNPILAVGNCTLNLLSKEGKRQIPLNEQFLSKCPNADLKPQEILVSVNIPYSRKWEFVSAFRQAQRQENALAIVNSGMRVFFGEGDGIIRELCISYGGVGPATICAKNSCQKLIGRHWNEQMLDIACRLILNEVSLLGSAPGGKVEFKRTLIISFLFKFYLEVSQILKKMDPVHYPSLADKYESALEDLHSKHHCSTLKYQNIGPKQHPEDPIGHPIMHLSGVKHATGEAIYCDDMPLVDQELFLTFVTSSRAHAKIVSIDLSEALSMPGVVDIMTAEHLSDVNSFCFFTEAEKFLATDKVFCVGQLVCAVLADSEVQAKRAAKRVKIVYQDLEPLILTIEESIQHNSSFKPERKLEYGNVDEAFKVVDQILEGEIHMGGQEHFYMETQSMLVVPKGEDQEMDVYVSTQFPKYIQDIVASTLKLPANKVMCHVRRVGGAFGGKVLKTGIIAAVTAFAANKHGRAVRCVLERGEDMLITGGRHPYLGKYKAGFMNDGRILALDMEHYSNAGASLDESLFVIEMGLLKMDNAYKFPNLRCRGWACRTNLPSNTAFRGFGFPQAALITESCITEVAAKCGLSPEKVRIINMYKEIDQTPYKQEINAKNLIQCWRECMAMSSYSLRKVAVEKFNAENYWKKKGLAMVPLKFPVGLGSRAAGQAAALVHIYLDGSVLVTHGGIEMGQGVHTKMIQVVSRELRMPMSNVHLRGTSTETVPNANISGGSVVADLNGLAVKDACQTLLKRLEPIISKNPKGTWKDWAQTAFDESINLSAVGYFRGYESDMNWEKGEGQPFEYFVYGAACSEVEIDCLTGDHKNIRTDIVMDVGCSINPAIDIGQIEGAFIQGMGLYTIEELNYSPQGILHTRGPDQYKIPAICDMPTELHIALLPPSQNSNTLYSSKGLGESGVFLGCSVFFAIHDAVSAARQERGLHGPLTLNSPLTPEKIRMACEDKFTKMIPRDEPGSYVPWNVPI

Key:
aldehyde oxidase = aldehyde oxidase (Homo sapiens, UniProt Q06278)

| Compound | pIC50 (WNT signaling) | CLint scaled (aldehyde oxidase) [mL/min/kg] |
| --- | --- | --- |
| Cc1ncc(-c2ccc(-c3cnn(C)c3)cc2)c2nc(C(N)=O)ccc12 | 6.56 | 9 |
| COC1CN(C(=O)c2ccc3c(C(F)F)ncc(-c4ccc(-c5cnn(C)c5)cc4)c3n2)C1 | 5.61 | – |
